What was measured:
[1] = stress test of pure catechin under varying conditions; type: physicochemical
Text: […]. However, it can be preserved by a number of preservatives, including but not limited to stannous chloride (SnCl2), sodium bisulfate/metabisulfite (SBS), and other preservatives.

By UniProt entry, the sequences of proteins in these tests, tags left out. Residues count along the entry.
UniProt P23219, 24-599: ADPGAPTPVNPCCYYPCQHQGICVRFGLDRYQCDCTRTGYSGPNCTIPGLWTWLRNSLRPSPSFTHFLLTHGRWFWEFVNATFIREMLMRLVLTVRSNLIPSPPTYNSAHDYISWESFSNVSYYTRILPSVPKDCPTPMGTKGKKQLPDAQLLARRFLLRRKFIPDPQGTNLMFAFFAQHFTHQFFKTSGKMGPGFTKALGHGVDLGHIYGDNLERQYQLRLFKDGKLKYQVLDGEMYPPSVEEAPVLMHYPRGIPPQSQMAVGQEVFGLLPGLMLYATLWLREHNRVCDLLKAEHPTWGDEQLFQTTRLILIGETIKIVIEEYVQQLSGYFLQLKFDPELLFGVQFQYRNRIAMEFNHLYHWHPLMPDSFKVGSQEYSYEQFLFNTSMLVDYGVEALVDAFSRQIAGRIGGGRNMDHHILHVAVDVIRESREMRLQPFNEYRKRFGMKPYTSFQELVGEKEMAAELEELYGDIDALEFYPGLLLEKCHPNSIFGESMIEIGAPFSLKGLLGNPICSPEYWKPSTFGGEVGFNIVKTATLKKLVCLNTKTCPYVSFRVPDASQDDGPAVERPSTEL

[2] = target: COX-1 (Homo sapiens, UniProt P23219); experiment: COX-1 enzymatic inhibition; type: biochemical
[3] = in vivo; cited from earlier work

catechin
stability under basic conditions or when exposed to metal ions ([1]; basic conditions or metal ions such as Fe3+): not
stability under neutral conditions ([1]; neutral conditions at both 4° C. and 40° C.): stable
stability under weakly basic conditions ([1]; pH=7.5): decomposes
IC50 for COX-1 [2]: 0.11 μg/mL/unit of enzyme
half-life [3]: 2 h

From patent US20060204596A1, “Formulation of a mixture of Free-B-Ring flavonoids and flavans as a therapeutic agent” (Unigen Pharmaceuticals, Inc., priority 2005, published 2006)
